# Values quoted from earlier work as cited in patent publication US20240024386A1, “MICROBIOME MEDIATED INDUCTION OF IMMUNE TOLERANCE AND RESOLUTION OF INFLAMMATION” (INFINANT HEALTH, INC., priority 2020, published 2024).
# Test system: SRS-CoV
# Conditions: Vero E6 cells
molecule,measurement,value
"IFNβ 1a: interferon beta-1a, a form of IFNβ (protein, UniProt P01574 22-187, looked up) Interferon beta: MSYNLLGFLQRSSNFQCQKLLWQLNGRLEYCLKDRMNFDIPEEIKQLQQFQKEDAALTIYEMLQNIFAIFRQDSSSTGWNETIVENLLANVYHQINHLKTVLEEKLEKEDFTRGKLMSSLHLKRYYGRILHYLKAKEYSHCAWTIVRVEILRNFYFINRLTGYLRN",inhibition of SRS-CoV,inhibits
